Measurements taken from paper PMC7859889 (ACS chemical biology, 2020).

Legend:
[1] = system: HLA-B mRNA; assay: HLA-B RT-qPCR tertiary assay; format: cell-based, human; settings: control samples assayed during screening
[2] = system: HLA-A; assay: Multi Gene RT-qPCR, HLA-A; format: cell-based, human; settings: C25cl48 cells, 4.0 ng/ml IFN-β, 24 hrs, relative to HPRT1
[3] = system: HLA-C; assay: Multi Gene RT-qPCR, HLA-C; format: cell-based, human; settings: C25cl48 cells, 4.0 ng/ml IFN-β, 24 hrs, relative to HPRT1
[4] = system: IFIT1; assay: Multi Gene RT-qPCR, IFIT1; format: cell-based, human; settings: C25cl48 cells, 4.0 ng/ml IFN-β, 24 hrs, relative to HPRT1
[5] = system: ISG15; assay: Multi Gene RT-qPCR, ISG15; format: cell-based, human; settings: C25cl48 cells, 4.0 ng/ml IFN-β, 24 hrs, relative to HPRT1
[6] = system: MX1; assay: Multi Gene RT-qPCR, MX1; format: cell-based, human; settings: C25cl48 cells, 4.0 ng/ml IFN-β, 24 hrs, relative to HPRT1
[7] = system: HLA-B HiBit cells
[8] = system: C25cl48 cells
[9] = system: TF-1; settings: TF-1 proliferation assay ref 19; cited from earlier work

Substance: IFN-β: Recombinant human IFN-β (Peprotech, 300–02BC) used to stimulate MHC class I expression
- up-regulation of HLA-B by IFN-β [1]: 42 fold
- up-regulation of HLA-A by IFN-β [2]: 3.1 fold
- up-regulation of HLA-C by IFN-β [3]: 11 fold
- up-regulation of IFIT1 by IFN-β [4]: 100 fold
- up-regulation of ISG15 by IFN-β [5]: 100 fold
- up-regulation of MX1 by IFN-β [6]: 3100 fold
- CTG viability response in control titrations [7]: subtle concentration-response inhibition of cell proliferation
- cell count response in control titrations [8]: growth inhibition effect
- Reported bioactivity [9]: approximately 100 pg/ml
